{
  "source": "patent US5424205A",
  "about": "“Amyloidin protease and uses thereof” (Athena Neurosciences, Inc., priority 1993, dated 1995)",
  "molecular_target": "human amyloidin protease (human)",
  "data": [
    {"substance": "aprotinin, the bovine Kunitz trypsin inhibitor (from UniProt P00974)", "values": [
      {"measurement": "% Control Activity (cleavage of APP592-601) (% control activity)", "value": 102}
    ]}
  ]
}
